The record followed here is patent US10760052B2, “Method of inhibiting tau phosphorylation” (priority 2012, dated 2020).

Sequences of proteins named here, by UniProt entry; tags and fusion partners are left off.
UniProt P33535, whole entry: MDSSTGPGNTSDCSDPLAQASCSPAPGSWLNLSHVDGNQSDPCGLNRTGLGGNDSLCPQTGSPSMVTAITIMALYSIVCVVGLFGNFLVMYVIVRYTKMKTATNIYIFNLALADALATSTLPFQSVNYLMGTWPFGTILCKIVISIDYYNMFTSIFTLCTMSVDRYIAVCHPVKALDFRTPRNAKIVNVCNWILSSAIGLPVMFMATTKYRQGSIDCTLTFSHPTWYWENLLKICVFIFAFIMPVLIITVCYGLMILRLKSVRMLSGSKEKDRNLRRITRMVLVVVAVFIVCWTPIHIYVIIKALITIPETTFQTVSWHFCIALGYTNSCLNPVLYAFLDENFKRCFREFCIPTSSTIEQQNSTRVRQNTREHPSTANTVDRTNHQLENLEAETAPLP

This experiment addresses T1, mu opiate receptor (MOR) (Rattus norvegicus, UniProt P33535).
T1 construct: from tissue; host or cells: striatum (membrane preparation)
The experiment is classed as biochemical.

Consider `O=S(=O)(c1ccc(F)cc1)N1CCOC12CCN(CC1CC1)CC2` [F-C0134], for which the “% DAMGO (0.1 μM)” value worked out at 138.1%; the “% DAMGO (1 μM)” value turned out to be 111.4%; the “% DAMGO + BFNA” value was determined as 116.2%; the “[35S]GTPγS binding, FLNA-Binding Compound as Agonist at 0.1 μM” value stood at 290.6%. In addition, the “[35S]GTPγS binding, FLNA-Binding Compound as Agonist at 1 μM” value is reported as 378.9% and the “[35S]GTPγS binding, FLNA-Binding Compound as Agonist at 1 μM + BFNA” value worked out at 66.6%.
